Molecular target: human serum albumin (Homo sapiens, UniProt P02768)
Experiment: Binding to human serum albumin by ultrafiltration
Details: 1 nM insulin solution in 0.6 mM human serum albumin, spiked with 125I-labeled insulin
Experimental: Binding to human serum albumin is determined by ultrafiltration according to Whitlam J. B. & Brown K. F.: J. Pharm. Sci. 70, 146-150, 1981, applying 1 nM bovine insulin solution in 0.6 mM human serum albumin, spiked with ^125I-labeled insulin. 95% of the insulin is bound. It is evident that such binding to albumin will reduce the renal elimination of the modified insulin (Compounds B and D) relative to that of native insulin.

**Q.** For “Bovine 1-[[(3β,5β,12α)-23-[(1,1-dimethyl)ethoxycarbonyl]-12-hydroxy-24-norcholan-3-yl]amino]carbonyl-3,5-bis[[4-(insulin-N^εB29-yl)-1,4-dioxobutyl]amino]benzene [Compound D]”, which “bound to human serum albumin” value is on record?
**A.** 95%

Reference: patent US7989417B2, “Linkers for radiopharmaceutical compounds” (Bracco Imaging S.p.A., priority 2003, dated 2011)
